Assay results published in patent publication US20260355274A1 (Onkure, Inc., priority 2022, published 2026).

By UniProt entry, the sequences of proteins in these tests, tags left out. Where a name states a change or a piece, a line headed by the entry shows the natural chain unless it says otherwise.
UniProt O15379: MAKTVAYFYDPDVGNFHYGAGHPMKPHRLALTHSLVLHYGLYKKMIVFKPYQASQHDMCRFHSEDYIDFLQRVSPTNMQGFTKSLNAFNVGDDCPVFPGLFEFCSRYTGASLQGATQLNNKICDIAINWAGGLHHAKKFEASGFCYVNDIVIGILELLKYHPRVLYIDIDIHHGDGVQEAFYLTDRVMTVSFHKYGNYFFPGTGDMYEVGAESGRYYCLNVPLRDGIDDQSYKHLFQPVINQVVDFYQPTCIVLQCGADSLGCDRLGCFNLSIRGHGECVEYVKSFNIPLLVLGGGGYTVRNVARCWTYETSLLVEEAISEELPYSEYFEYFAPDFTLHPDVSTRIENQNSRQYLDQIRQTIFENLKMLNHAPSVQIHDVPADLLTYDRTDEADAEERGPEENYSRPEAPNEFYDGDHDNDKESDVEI

Molecular target: HDAC 3 (Homo sapiens, UniProt O15379)
Test: enzymatic inhibition of HDAC 3
Format: biochemical
Conditions: HDAC 3, Class I
Description: The mammalian HDACs can be divided into four classes depending on their sequence homology, sub-cellular distribution and catalytic activity. Class I, Il and IV HDACs have a Zn^2+ cofactor in the catalytic site. Class III HDACs contain sirtuins 1-7 and are NAD^+-dependent. Class I (HDACs 1, 2, 3 and 8) share the same homology as Rpd3 and are preliminarily distributed in the nucleus of normal cells. Class II HDACs can be subdivided into class IIa HDACs and class Ilb HDACs. Class IIa enzymes (HDAC 4, 5, 7 and 9) shuttle between the nucleus and cytoplasm and are located in specific tissues such as the brain, heart, and muscle. Class IIb (HDACs 6 and 10) are chiefly located in the cytoplasm.

**Q.** Which IC50 does the source give for `C/C=C1\NC(=O)[C@@H](CS)NC(=O)[C@@H](C(C)C)NC(=O)C[C@@H](/C=C/CCS)OC(=O)[C@H](C(C)C)NC1=O` [Red-FK228, reference compound] here?
**A.** 1.3 nM
